Results: patent publication US20090054439A1

Amino acid sequences for entries named in this document (tags omitted).
UniProt O43614, whole entry: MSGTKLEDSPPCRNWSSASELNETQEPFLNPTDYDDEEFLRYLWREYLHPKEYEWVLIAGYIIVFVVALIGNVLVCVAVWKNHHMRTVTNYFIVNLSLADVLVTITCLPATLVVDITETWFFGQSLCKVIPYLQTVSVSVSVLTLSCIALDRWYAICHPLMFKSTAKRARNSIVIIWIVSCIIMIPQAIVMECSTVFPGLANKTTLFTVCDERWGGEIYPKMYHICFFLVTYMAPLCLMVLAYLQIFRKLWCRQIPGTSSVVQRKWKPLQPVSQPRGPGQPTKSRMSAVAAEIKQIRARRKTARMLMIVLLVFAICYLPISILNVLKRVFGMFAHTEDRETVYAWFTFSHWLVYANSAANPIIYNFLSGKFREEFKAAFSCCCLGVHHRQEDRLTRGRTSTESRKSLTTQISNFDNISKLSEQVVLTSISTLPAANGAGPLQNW

Target: human orexin 2 receptors (Homo sapiens, UniProt O43614)
Experiment: in vitro binding: displacement of radioiodinated orexin A bound to human orexin 2 receptors expressed in CHO cells (membranes)
Details: read-out: IC50 OX 2; displacement of radioiodinated orexin A (100 pM), CHO cell membranes, 30 minutes at 25° C.
Protocol: They have in particular been tested with regard to their effects. […] This method consists in studying the displacement of radioiodinated orexin A bound to human orexin 2 receptors expressed in CHO cells. The test is carried out on membranes in an incubation buffer of 50 mm Hepes, 1 mM MgCl2, 25 mm CaCl2, 0.025% NaN3, 1% bovine serum albumin (BSA) and 100 pM of ligand for 30 minutes at 25° C. The reaction is halted by filtering and washing on a Whatman GF/C filter. The nonspecific binding is measured in the presence of 10^−6 M of human orexin B. The IC50 (concentration which inhibits the binding of the radioiodinated orexin A to its receptors by 50%) values are low, less than 300 nM, in particular less than 100 nM and more particularly less than 30 nM.

IC50: 37 nM
Compound: COc1ccc(S(=O)(=O)N(CC(C)O)c2c(Cc3c(F)cccc3F)cccc2OC)cc1OC (stereo not shown)
